The list shows a part of the results, in another mix than the full data. The source made the active and inactive calls. No stated cut-off is given here; in the data, active means inhibition above about 50%; inactive means the rest.
Experiment: lowers stimulated NF-kB reporter luminescence – cell-based, uHTS, TCR NF-kB activation inhibitor project, primary screen (AID 435003)
Conditions: Jurkat, PMA/ionomycin-induced NF-kB luciferase reporter, at 4 µM, hits give high values

Row | SMILES | inhibition
1 | CN(C(=O)Cc1ccc(Cl)c(Cl)c1)[C@H]1CCCC[C@@H]1N1CCCC1 | inactive: 4.68%
2 | Cc1ccc(NP(=O)(Oc2ccccc2F)Oc2ccccc2F)nc1 | inactive: 1.93%
3 | CCOP(=O)(Nc1ccccc1)OCC | inactive: -24.9%
4 | Cc1cc(SC(NC(=O)c2ccc(F)cc2)C(Cl)(Cl)Cl)ncn1 (stereo not given) | inactive: -3.29%
5 | O=C(O)c1ccccc1[As](=O)(O)O | inactive: -18.1%
6 | CC(=O)Nc1ccc([As](=O)(O)O)cc1 | inactive: 3.67%
7 | O=P(Nc1nc2ccc(Cl)cc2s1)(c1ccccc1)c1ccccc1 | inactive: 7.38%
8 | CCN(N=Nc1nonc1N)c1nonc1N | inactive: 9.4%
9 | O=[N+]([O-])c1cc([N+](=O)[O-])c(CCN2CCOCC2)c([N+](=O)[O-])c1 | inactive: -3.98%
10 | Cc1ccc(OP(=O)(Nc2nccs2)Oc2ccc(C)cc2)cc1 | inactive: 10.5%
11 | COc1ccccc1OP(=O)(Nc1ccc(C)cn1)Oc1ccccc1OC | inactive: 9.83%
12 | Clc1ccc(Cl)c(NC2=NCC(CBr)S2)c1 (stereo not given) | inactive: 7.8%
13 | CN1CCCC(OC(=O)C(c2ccccc2)c2ccccc2)C1 (stereo not given) | inactive: 3.05%
14 | NC(=O)c1cc([N+](=O)[O-])cc([N+](=O)[O-])c1N | inactive: -8.65%
15 | Cc1ccc(N/C(=N/P(=O)(N2CCOCC2)N2CCOCC2)N2CCOCC2)cc1 | inactive: 3.06%
16 | CN(C(=O)Cc1ccc(Cl)c(Cl)c1)[C@H]1CCCC[C@H]1N1CCCC1 | inactive: 3.58%
17 | CC(C)CC(=O)NC(Sc1ccc(Cl)cc1)C(Cl)(Cl)Cl (stereo not given) | inactive: -24.5%
18 | Nc1cc(N)c2nonc2c1[N+](=O)[O-] | inactive: 5.61%
19 | Cc1c2non([O-])c-2c(C)[n+](=O)[n+]1[O-] | inactive: 11.4%
20 | O=C(NC(Sc1ccncn1)C(Cl)(Cl)Cl)c1ccccc1 (stereo not given) | inactive: 2.78%
21 | Oc1ccccc1CNc1ccccn1 | inactive: -10.4%
22 | CC(=O)N1C2C3N(C(C)=O)C1C1N(C(C)=O)C(C(N1C(C)=O)N3C(C)=O)N2C(C)=O | inactive: -4.28%

Row | SMILES | inhibition
23 | O=[N+]([O-])c1cccc2n[nH]nc12 | inactive: -2.68%
24 | O=[N+]([O-])c1cc([N+](=O)[O-])c(CCNc2ccccc2)c([N+](=O)[O-])c1 | inactive: -5.17%
25 | CCc1nc2c(n1)c1c(non1O)c1c2no[n+]1[O-] | inactive: 30.1%
26 | Cc1ccc(NP(=O)(Oc2ccccc2)Oc2ccccc2)nc1 | inactive: 1.56%
27 | COc1ccc(C2=NCC(CBr)S2)cc1 (stereo not given) | inactive: 7.16%
28 | CN(C)C(=O)OCCc1n(C)cc[n+]1C | inactive: 3.63%
29 | CC(C)=N/N=C(\N)N[N+](=O)[O-] | inactive: -2.76%
30 | CC1CCN(C(=O)Oc2c(Cl)cc(Cl)c3cccnc23)CC1 | inactive: -7.87%
31 | C[N+]1=C2C=CC=CC=C2SC12C([N+](=O)[O-])=CC([N+](=O)[O-])=C[C-]2[N+](=O)[O-] (stereo not given) | inactive: -11.6%
32 | Nc1ccc([As](=O)(O)c2ccc(N)cc2)cc1 | inactive: -1.43%
33 | CCN(/C(=N/P(=O)(N1CCOCC1)N1CCOCC1)N1CCOCC1)c1ccc(OC)cc1 | inactive: 1.45%
34 | O=C(Nc1cc([As](=O)(O)O)ccc1O)c1ccccc1 | inactive: -1.67%
35 | O=[N+]([O-])c1cccc(NC2=NCC(CBr)S2)c1 (stereo not given) | inactive: 1.23%
36 | CC(C)(C)C(=O)NC(Sc1ccncn1)C(Cl)(Cl)Cl (stereo not given) | inactive: -7.54%
37 | O=[N+]([O-])c1ncn(CCn2ncnc2[N+](=O)[O-])n1 | inactive: -0.653%
38 | C[C@H]1OP(=O)(Oc2ccccc2)[C@H](O)[C@H](O)[C@H]1N=[N+]=[N-] (stereo not given in full) | inactive: -4.65%
39 | O=P(Nc1nc2ccccc2s1)(c1ccccc1)c1ccccc1 | inactive: 2.77%
40 | CN(C)C1(CNC(=O)c2ccc(Cl)c(S(N)(=O)=O)c2)CCCCC1 | inactive: -30%
41 | O=P(Nc1ccccn1)(c1ccc(Br)cc1)c1ccc(Br)cc1 | inactive: 5.69%
42 | Nc1ccc([As](=O)(O)c2ccc([N+](=O)[O-])cc2)cc1 | inactive: -0.365%
43 | C(Cc1nn[nH]n1)Cc1nn[nH]n1 | inactive: 9.47%
44 | O=C(OC1CN2CCC1CC2)c1cccc(Cl)c1 (stereo not given) | inactive: 10.1%

Row | SMILES | inhibition
45 | O=[N+]([O-])c1ncn(CCn2cnc([N+](=O)[O-])n2)n1 | inactive: 6.39%
46 | O=[As](O)(c1ccccc1)c1ccc(O)cc1 | inactive: -1.42%
47 | c1nnnn1CCn1cnnn1 | inactive: -6.66%
48 | O=P(Nc1nccs1)(c1ccccc1)c1ccccc1 | inactive: -8.11%
49 | CC(C)C(=O)NC(Sc1ccccc1)C(Cl)(Cl)Cl (stereo not given) | inactive: -3.95%
50 | CC(C)(C)C(=O)NC(Sc1ccccc1)C(Cl)(Cl)Cl (stereo not given) | inactive: -7.17%
51 | CCOc1ccc(C2=NCC(CBr)S2)cc1 (stereo not given) | inactive: 9.02%
52 | O=P1(Nc2nc3ccc(Cl)cc3s2)COc2ccccc2O1 (stereo not given) | inactive: 2.83%
53 | CC(=O)Nc1ccc(Oc2c([N+](=O)[O-])cc([N+](=O)[O-])cc2[N+](=O)[O-])cc1 | inactive: 5.18%
54 | CC(=O)Nc1ccc([As](=O)(O)O)c(O)c1 | inactive: -15.7%
55 | CC(=O)c1ccc(N2CC2c2ccncc2)cc1 (stereo not given) | inactive: 12.3%
56 | C[C@@H]1C=CCP(=O)(Oc2ccccc2)O1 (stereo not given in full) | inactive: 3.07%
57 | C[C@H]1OP(=O)(Oc2ccccc2)C[C@@H]2O[C@@H]21 (stereo not given in full) | inactive: -4.28%
58 | Cc1ccccc1CN(C)C(=O)COC(=O)C(O)(c1ccccc1)c1ccccc1 | inactive: -6.26%
59 | O=C(NC1CCS(=O)(=O)C1)NP(=S)(Oc1ccccc1)Oc1ccccc1 (stereo not given) | inactive: 3.06%
60 | CCNC(=S)/N=C(\N)N[N+](=O)[O-] | inactive: 18.1%
61 | CCOC(=O)NC(Sc1ccccc1)C(Cl)(Cl)Cl (stereo not given) | inactive: 0.507%
62 | Cc1ccc(NP(=O)(Oc2cccc(C)c2)Oc2cccc(C)c2)nc1 | inactive: -21.1%
63 | c1ccc(-c2nn[nH]n2)c(-c2nn[nH]n2)c1 | inactive: -7.26%
64 | CN(C)C(=O)Oc1noc2ccccc12 | inactive: -12.8%
65 | Cc1ccccc1OP(=O)(Nc1ccccn1)Oc1ccccc1C | inactive: 9.36%
